Target: Human IL-21 receptor on Baf3/KZ134/huIL-21R cells (human) (UniProt Q9HBE5)
Test: cell-based or functional assay

EC90 in STAT-Luciferase assay: 6.41 nM
Substance: Recombinant murine IL-21 (from UniProt Q9ES17 18-146) (ligand)

From patent publication US20120225065A1
